Measured values: the FLAb antibody collection

Test: patients with anti-drug antibodies; higher = more immunogenic

B1: unnamed (protein)
chain 1: QAQVVESGGGVVQSGRSLRLSCAASGFAFSSYGMHWVRQAPGKGLEWVAVIWYDGSNKYYADSVRGRFTISRDNSENTLYLQMNSLRAEDTAVYYCARDHYGSGVHHYFYYGLDVWGQGTTVTVSS
chain 2: [about 100 residues not shown]
**Q.** Which “patients with anti-drug antibodies” value does the source give for B1 here?
**A.** 0%
